{"source": "paper PMC4773911", "about": "(Journal of the American Chemical Society, 2015)", "test_system": "serine hydrolases", "type": "binding, mouse", "conditions": "1 μM; including ABHD6 and ABHD12"}
{"smiles": "CCCCCCCCCCC[C@@H](C[C@@H]1OC(=O)[C@H]1CCCCCC)OC(=O)[C@H](CC(C)C)NC=O", "note": "[THL]", "values": [{"measurement": "number of serine hydrolases whose labeling was blocked", "value": "at least 4"}]}
